From paper PMC11370232, “Repurposing of a library for high-content screening of inhibitors against Echinococcus granulosus” (Parasites & Vectors, 2024)

Tested on: E. granulosus PSCs
Assay: microbe, parasite or virus in culture
Details: Echinococcus granulosus
[1] = read-out: Anti-echinococcus activity % of death, 0.5uM
[2] = read-out: Anti-echinococcus activity % of death, 2uM
[3] = read-out: Anti-echinococcus activity % of death, 10uM
[4] = read-out: Anti-echinococcus activity % of death, 50uM
[5] = 72 h, read-out: Anti-echinicoccus activity, Dose confirmaiton 0.5uM, second-stage dose-response, 0.5 μM, PSCs
[6] = 72 h, read-out: Anti-echinicoccus activity, Dose confirmaiton 2uM, second-stage dose-response, 2 μM, PSCs
[7] = 72 h, read-out: Anti-echinicoccus activity, Dose confirmaiton 10uM, second-stage dose-response, 10 μM, PSCs
[8] = 72 h, read-out: Anti-echinicoccus activity, Dose confirmaiton 50uM, second-stage dose-response, 50 μM, PSCs
[9] = 72 h, read-out: Anti-echinicoccus activity, Initiate hits 50uM, primary screen, 50 μM, PSCs, 3-day incubation, PI staining (death rate of PSCs)
[10] = read-out: Anti-echinococcus activity % of death
[11] = read-out: Anti-echinococcus activity % of death, 0.5uM, E. granulosus PSCs, compound at 0.5uM
[12] = read-out: Anti-echinococcus activity % of death, 10uM, E. granulosus PSCs, compound at 10uM
[13] = read-out: Anti-echinococcus activity % of death, 50uM, E. granulosus PSCs, compound at 50uM

Compound: CCCCCCCCNC(=O)/C(C#N)=C\c1c(C)n(CCCN(C)C)c2ccccc12 [Anisina]
- mortality at 0.5 µM [1]: 0%
- mortality at 2 µM [2]: 0%
- mortality at 10 µM [3]: 0%
- mortality at 50 µM [4]: 100%

Compound: C=C1C(=O)O[C@@H]2[C@H]3C(C)=CC[C@@]34O[C@@]4(C)CC[C@@H]12 [Arglabin]
- mortality at 0.5 µM [1]: 0%
- mortality at 2 µM [2]: 0%
- mortality at 10 µM [3]: 0%
- mortality at 50 µM [4]: 100%

Compound: COc1ccc(-c2ccc3ncc4c(c3c2)n(-c2ccc(N3CCNCC3)c(C(F)(F)F)c2)c(=O)n4C)cn1 [BGT226 (NVP-BGT226), BGT226, reference compound]
- killing at 0.5 µM [5]: 0%
- killing at 2 µM [6]: 0%
- killing at 10 µM [7]: 100%
- killing at 50 µM [8]: 100%
- killing at 50 µM [9]: 88%

Compound: CNc1nc(Nc2ccc(-n3cnc(C)n3)c(OC)c2)nc2c1CC[C@H]2c1ccc(F)cc1 [BMS-932481]
- mortality at 0.5 µM [10]: 0%
- mortality at 2 µM [10]: 0%
- mortality at 10 µM [10]: 0%
- mortality at 50 µM [10]: 100%

Compound: CC(C)(C)[C@H](c1nc(-c2cc(F)ccc2F)cn1Cc1ccccc1)N(CC[C@H](N)CF)C(=O)CO [BQS-481]
- mortality at 0.5 µM [11]: 0%
- mortality at 2 µM (read-out: Anti-echinococcus activity % of death, 2uM, E. granulosus PSCs, compound at 2uM): 0%
- mortality at 10 µM [12]: 0%
- mortality at 50 µM [13]: 100%

Compound: O=C(Nc1ccc(Cl)cc1)c1cc(Br)ccc1O [BROMOSALICYLCHLORANILIDE]
- mortality at 0.5 µM [1]: 0%
- mortality at 2 µM [2]: 0%
- mortality at 10 µM [3]: 100%
- mortality at 50 µM [4]: 100%

Compound: CC1(C)C(=O)N=C2C1=C(O)C(=O)c1ccccc12 [BVT-948]
- mortality at 0.5 µM [1]: 0%
- mortality at 2 µM [2]: 0%
- mortality at 10 µM [3]: 100%
- mortality at 50 µM [4]: 100%

Compound: O=C1C=CC(O)(c2cc3ccccc3n2S(=O)(=O)c2ccccc2)C=C1 [BW-114]
- mortality at 0.5 µM [1]: 0%
- mortality at 2 µM [2]: 0%
- mortality at 10 µM [3]: 50%
- mortality at 50 µM [4]: 100%

Compound: COC(=O)[C@]12CCC(C)(C)C[C@H]1[C@H]1C(=O)C=C3[C@@]4(C)C=C(C#N)C(=O)C(C)(C)[C@@H]4CC[C@@]3(C)[C@]1(C)CC2 [Bardoxolone methyl, reference compound]
- killing at 0.5 µM [5]: 0%
- killing at 2 µM [6]: 0%
- killing at 10 µM [7]: 40%
- killing at 50 µM [8]: 100%
- killing at 50 µM [9]: 100%
- MIC90 (72 h, read-out: MIC90 (minimum inhibitory concentration causing a 90% death of PSCs)): 3.8 µM (≈ 1.92 µg/mL)
- mortality at 0.5 µM [11]: 0%
- mortality at 10 µM [12]: 100%
- mortality at 50 µM [13]: 100%

Compound: CC1(C)CCC2=C(O1)c1ccccc1C(=O)C2=O [Beta-Lapachone, reference compound]
- killing at 0.5 µM [5]: 0%
- killing at 2 µM [6]: 0%
- killing at 10 µM [7]: 50%
- killing at 50 µM [8]: 100%
- killing at 50 µM [9]: 100%

Compound: O=C1C=Cc2cc(Br)ccc2C1=O [Bonaphthone]
- mortality at 0.5 µM [1]: 0%
- mortality at 2 µM [2]: 0%
- mortality at 10 µM [3]: 0%
- mortality at 50 µM [4]: 100%

Compound: NC(=O)C1(N2CCCCC2)CCN(CCCN2c3ccccc3CCc3ccccc32)CC1 [CARPIPRAMINE]
- mortality at 0.5 µM [10]: 0%
- mortality at 2 µM [10]: 0%
- mortality at 10 µM [10]: 0%
- mortality at 50 µM [10]: 100%

Compound: C/C=C/C/C=C/CCC(=O)[C@H]1O[C@H]1C(N)=O [CERULENIN]
- mortality at 0.5 µM [1]: 0%
- mortality at 2 µM [2]: 0%
- mortality at 10 µM [3]: 0%
- mortality at 50 µM [4]: 100%

Compound: NC(=O)C1(N2CCCCC2)CCN(CCCN2c3ccccc3CCc3ccc(Cl)cc32)CC1 [CLOCAPRAMINE]
- mortality at 0.5 µM [10]: 0%
- mortality at 2 µM [10]: 0%
- mortality at 10 µM [10]: 0%
- mortality at 50 µM [10]: 100%

Compound: O=c1[nH]c2cc(Cl)ccc2n1C1CCN(CCCC(c2ccc(F)cc2)c2ccc(F)cc2)CC1 [CLOPIMOZIDE]
- mortality at 0.5 µM [1]: 0%
- mortality at 2 µM [2]: 0%
- mortality at 10 µM [3]: 30%
- mortality at 50 µM [4]: 100%

Compound: COc1ccc(NC(=N)Nc2ccc3c4c(cccc24)CC3)c2ccccc12 [CNS 1237]
- mortality at 0.5 µM [1]: 0%
- mortality at 2 µM [2]: 0%
- mortality at 10 µM [3]: 0%
- mortality at 50 µM [4]: 100%

Compound: CNc1ccc2oc(C[C@H]3O[C@@]4(CC[C@H]3C)O[C@H]([C@H](C)C(=O)c3ccc[nH]3)[C@H](C)C[C@H]4C)nc2c1C(=O)O [Calcimycin, reference compound]
- killing at 0.5 µM (72 h, read-out: Anti-echinicoccus activity, Dose confirmaiton 0.5uM): 0%
- killing at 2 µM (72 h, read-out: Anti-echinicoccus activity, Dose confirmaiton 2uM): 0%
- killing at 10 µM (72 h, read-out: Anti-echinicoccus activity, Dose confirmaiton 10uM): 100%
- killing at 50 µM (72 h, read-out: Anti-echinicoccus activity, Dose confirmaiton 50uM): 100%
- killing at 50 µM (72 h, read-out: Anti-echinicoccus activity, Initiate hits 50uM): 74%
- mortality at 0.5 µM [1]: 0%
- mortality at 2 µM [2]: 70%
- mortality at 10 µM [3]: 100%
- mortality at 50 µM [4]: 100%

Compound: Clc1ccc(C(c2ccc(Cl)cc2)n2cc[n+](CC(OCc3ccc(Cl)cc3Cl)c3ccc(Cl)cc3Cl)c2)cc1 (centres unmarked) [Calmidazolium chloride, reference compound]
- killing at 0.5 µM [5]: 0%
- killing at 2 µM [6]: 0%
- killing at 10 µM [7]: 50%
- killing at 50 µM [8]: 100%
- killing at 50 µM [9]: 79%

Compound: C[C@@](Cc1ccc(O)c(O)c1)(NN)C(=O)O [Carbidopa]
- mortality at 0.5 µM [1]: 0%
- mortality at 2 µM [2]: 0%
- mortality at 10 µM [3]: 0%
- mortality at 50 µM [4]: 100%

≈ marks a conversion by molar mass, not a printed value. Read-outs that look alike come from different tables or passages of the source.
